The target in this experiment is Baculoviral IAP repeat-containing protein 2 (Homo sapiens, UniProt Q13490). As to the kind of experiment: In Vitro Competitive Displacement Binding Assay: Modified SMAC peptides and compounds were tested for their ability to displace the fluorescent tracer from either XIAP, cIAP-1 or cIAP-2. BIR3 domains of cIAP-1, cIAP-2 and XIAP were incubated with test compounds or SMAC based peptides and their respective peptide probes (Peptide Protein Research) in assay buffer (50 mM Hepes pH 7.5, 0.025% ….

Broadly, the IC50 is the concentration at which inhibition is half-maximal. A high value points to weaker potency in that assay.

`CCC1(CC)Oc2nc(NC(=O)[C@@H](C)NC)ccc2N(c2ccc(Cl)cc2)C1=O`: the IC50 result is “in the range around 505 nM”.
